The values below come from ChEMBL document CHEMBL3392969, “SAR156497, an exquisitely selective inhibitor of aurora kinases” (J Med Chem, 2015).

Chains of the proteins cited; added tags and fusions are not shown.
UniProt Q96GD4, whole entry: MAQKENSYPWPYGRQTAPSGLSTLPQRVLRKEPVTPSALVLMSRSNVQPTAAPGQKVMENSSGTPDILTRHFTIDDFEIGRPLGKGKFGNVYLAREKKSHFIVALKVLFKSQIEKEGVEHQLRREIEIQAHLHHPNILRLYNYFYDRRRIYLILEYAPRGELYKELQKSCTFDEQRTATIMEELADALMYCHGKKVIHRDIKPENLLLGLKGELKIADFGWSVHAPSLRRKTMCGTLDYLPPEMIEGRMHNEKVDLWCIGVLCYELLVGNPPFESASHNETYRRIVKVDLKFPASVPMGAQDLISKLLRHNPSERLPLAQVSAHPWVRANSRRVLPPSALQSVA

Some results are limits rather than exact numbers.

As usually defined, the IC50 is the point on the concentration scale where inhibition reaches its midpoint. Lower therefore signals greater potency in that assay.

This experiment deals with Aurora kinase B (Homo sapiens, UniProt Q96GD4).

On to `Nc1nc(O)c2c(n1)NC1=C(C(=O)CCC1)C2c1ccc(Sc2nc3ccccc3[nH]2)o1` (racemic), for which the IC50 is greater than 10 µM.
